According to patent US4780238A (priority 1985, dated 1988):

Assay: In vitro chelation assay (mouse liver suspension, PAO-1 extracts)
Settings: for % Th Liver / % Th Supernatant: mouse liver suspension, 27 ppm thorium, ambient room temperature

Substance	% Th Liver	% Th Supernatant	thorium adsorbed by the liver (27 ppm Th, within experimental error)
Thorium succinate	97%	3%	–
thorium nitrate	99%	1%	all of the thorium
